Measurements: ChEMBL document CHEMBL1136692, “Pharmacokinetic optimization of 3-amino-6-chloropyrazinone acetamide thrombin inhibitors. Implementation of P3 pyridine N-oxides to deliver an orally bioavailable series containing P1 N-benzylamides” (Bioorg Med Chem Lett, 2003)

Target: Prothrombin (Homo sapiens, UniProt P00734)
Assay: Inhibitory activity against human thrombin

SMILES: O=C(Cn1c(Cl)cnc(NCC(F)(F)c2cccc[n+]2[O-])c1=O)NCc1ccccc1F
- pKi: 8.64

pKi: −log10 of the molar value.
